The values that follow come from US20050192547A1, “Combinations of antiseptic and antibiotic agents containing medical devices” (priority 2002, published 2005).

Like-named read-outs stand apart in the source and are kept apart here.

The test system of this test is Pseudomonas aeruginosa.

In the case of `O=[N+]([O-])[O-].O=[N+]([O-])[O-].O=[N+]([O-])[O-].[Bi+3]` [Bismuth Nitrate, bismuth nitrate], the “Zones of Inhibition Against Pseudomonas aeruginosa” value is, setting by setting: (catheter treated with 2% Bismuth Salt) 0 mm; (catheter treated with 2% Bismuth Salt + 3% Minocycline) 15 mm.
